Laboratory results reported in published antibiotic growth screens (doi:10.1038/s41589-023-01349-8).
Some of the results follow.

test system: A. baumannii ATCC 17978; assay: relative growth (fraction of control); higher = less inhibition; conditions: 50 µM

First: COC(=O)[C@@H]1C[C@H](OC(C)=O)C(=O)[C@H]2[C@@]1(C)CC[C@H]1C(=O)O[C@H](c3ccoc3)C[C@]21C
Second: C[C@H]1C(=O)O[C@@H]2CCN3CC=C(COC(=O)[C@](C)(O)[C@]1(C)O)[C@H]23
The relative growth of the first is lower: 0.916 for the first, 0.931 for the second.

Compared with `CC[C@@H](C(=O)[C@@H](C)[C@@H](O)[C@H](C)[C@@H]1O[C@@H]([C@@H](CC)C(=O)[O-])CC[C@@H]1C)[C@H]1OC2(C=C[C@@H](O)[C@]3(CC[C@@](C)([C@H]4CC[C@](O)(CC)[C@H](C)O4)O3)O2)[C@H](C)C[C@@H]1C.[Na+]` (stereo not given in full), `CO[C@H]1[C@H](O)[C@@H](O[C@H]2CC[C@]3(C=O)C4CC[C@]5(C)[C@@H](C6=CC(=O)OC6)CC[C@]5(O)C4CC[C@@H]3C2)O[C@@H](C)[C@@H]1O` (stereo not given in full) is higher in relative growth: 0.966 for the first, 1.2 for the second.

First: CN1C2CC[C@@H]1C[C@@H](OC(=O)[C@H](CO)c1ccccc1)C2
Second: C[N+]1(C)C2CCC1CC(OC(=O)C(CO)c1ccccc1)C2.O=[N+]([O-])[O-] (stereo not given)
The relative growth of the first is lower: 0.933 for the first, 1 for the second.

First: COc1ccc(C(=O)N2CCCC2=O)cc1
Second: COc1ccc(C=O)cc1
The relative growth of the first is lower: 1.01 for the first, 1.02 for the second.

Going from `CN(C)C(=O)[C@@]1(Cc2ccccc2CN=[N+]=[N-])N=C(c2ccc(OCCCO)cc2)O[C@H]1c1ccccc1N=[N+]=[N-]` to `COC(=O)[C@]1(Cc2ccccc2CN=[N+]=[N-])N=C(c2ccc(OCCCO)cc2)O[C@@H]1c1ccccc1N=[N+]=[N-]`, the relative growth rises from 1 to 1.18.

Going from `C[C@]12CCC3C(CC[C@H]4C[C@@H](O)CC[C@]34C)C1CCC2=O` (stereo not given in full) to `C[C@]12CC[C@H](O)CC1=CCC1C2CC[C@]2(C)C(=O)CC[C@@H]12` (stereo not given in full), the relative growth rises from 0.983 to 1.09.

Compared with `CCCCCCCCCCCCCC(=O)O[C@@H]1[C@@H](C)[C@@]2(O)[C@@H](C=C(CO)C[C@]3(O)C(=O)C(C)=C[C@@H]23)[C@@H]2C(C)(C)[C@]12OC(C)=O`, `CC(=O)O[C@@H]1C2CC[C@@H]3C1(C[C@@H](O)[C@@]1(O)[C@@H](C[C@H](O)C1(C)C)[C@]3(C)O)C[C@@]2(C)O` (stereo not given in full) is lower in relative growth: 1.28 for the first, 1.13 for the second.

Compared with `Cc1nc(N2CCN(C)CC2)ccc1N`, `Cc1n[nH]c(=O)nc1N1CCN(C)CC1` is higher in relative growth: 0.968 for the first, 1.01 for the second.

Going from `CC1=NCCN=C(C)C1N1CCOCC1` to `CC(C)C12CN3CCN(CC(C3)C1=O)C2`, the relative growth falls from 1.09 to 0.879.

Going from `NCCc1ccc(C(=O)c2ccccc2)cc1` to `NCCc1ccc(O)cc1`, the relative growth rises from 1.02 to 1.17.

First: C[C@H](CO)N1C[C@H](C)[C@@H](CN(C)C(=O)Oc2ccc3ccccc3c2)OCc2cnnn2CCCC1=O
Second: O=C(O)/C=C\C(=O)O.c1ccc2nc(N3CCNCC3)ccc2c1
The relative growth of the first is higher: 1.15 for the first, 1.09 for the second.

First: Cn1cc([C@@]23C[C@]2(C)COC3=O)cn1
Second: Cc1cc([N+](=O)[O-])cnc1N1CCNCC1
The relative growth of the first is higher: 1.19 for the first, 0.969 for the second.

Going from `Cc1nccc2c1[nH]c1ccccc12` to `COc1ccc2c(c1)[nH]c1c(C)nccc12`, the relative growth rises from 0.532 to 0.777.

Compared with `NCC[C@H]1COc2ccccc2O1`, `Cn1c(CCN)nc2ccccc21` is higher in relative growth: 0.957 for the first, 0.988 for the second.

First: Cl.NCC(CC(=O)O)c1ccc(Cl)cc1 (racemic)
Second: Cl.NCC(O)c1ccc(O)cc1 (stereo not given)
The relative growth of the first is higher: 1.23 for the first, 0.968 for the second.

Compared with `COCCCNC(=O)[C@@]1(Cc2ccccc2CN=[N+]=[N-])N=C(c2ccc(OCCCO)cc2)O[C@H]1c1ccccc1CN=[N+]=[N-]`, `CC[n+]1c(-c2ccccc2)c2cc(N)ccc2c2ccc(N)cc21.[Br-]` is lower in relative growth: 0.969 for the first, 0.937 for the second.

Going from `O=[N+]([O-])c1cc([As](=O)(O)O)ccc1O` to `O=[N+]([O-])c1ccc([As](=O)(O)O)cc1`, the relative growth falls from 1.01 to 0.712.

Compared with `CC(C)(C)[C@H]1CC[C@@]2(CC1)C[C@@H](C[Si](C)(C)C)OO2`, `CC1CC[C@]2(NC1)O[C@H]1CC3C4CC[C@H]5C[C@@H](O)CC[C@]5(C)C4CC[C@]3(C)[C@H]1[C@@H]2C.Cl` (stereo not given in full) is higher in relative growth: 1.05 for the first, 1.15 for the second.

Going from `CNCC(=O)c1ccc(O)c(O)c1.Cl` to `COc1ccc(O)c(C(C)(C)C)c1`, the relative growth rises from 0.892 to 1.07.

Going from `CCC1(c2ccc(N)cc2)CCC(=O)NC1=O` (stereo not given) to `Cc1ccc(C2(CN)CCCCC2)cc1`, the relative growth falls from 0.909 to 0.718.

Going from `Cl.N=C(N)NN` to `[N-]=[N+]=CC(=O)OCC(N)C(=O)O` (stereo not given), the relative growth rises from 0.995 to 1.03.

First: C[C@@]1(C(=O)O)[C@H]2CC[C@@H](O2)[C@@]1(C)C(=O)O
Second: CC1=C2CCC3C(CC[C@]4(C)C(=O)CCC34)[C@@]2(C)CCC1=O (stereo not given in full)
The relative growth of the first is higher: 1.03 for the first, 0.99 for the second.

First: C[C@@H]1C[C@@H]([C@H](O)CC2CC(=O)NC(=O)C2)C(=O)[C@@H](C)C1
Second: CC1=C2[C@H]3OC(=O)C(C)[C@@H]3CC[C@@]2(C)C=CC1=O (stereo not given in full)
The relative growth of the first is higher: 0.938 for the first, 0.91 for the second.

First: C=C[C@H]1CN2CC[C@H]1CC2C(OC(=O)OCC)c1ccnc2ccc(OC)cc12 (stereo in doubt)
Second: COc1ccc2c3c([nH]c2c1)C(C)=NCC3
The relative growth of the first is higher: 0.94 for the first, 0.804 for the second.

Going from `C[CH2][Hg][S]c1ccccc1C(=O)[O-].[Na+]` to `CC[C@@H](CN)c1ccccc1`, the relative growth rises from 0.159 to 1.05.

First: CC(=O)CC1CCCCN1.Cl (stereo not given)
Second: COC(=O)C(c1ccccc1)C1CCCCN1.Cl (stereo not given)
The relative growth of the first is lower: 0.989 for the first, 1.29 for the second.

Going from `CCCC(=O)c1c(O)[nH]c(=O)[nH]c1=O` to `CCCCC1C(=O)NC(=S)NC1=O`, the relative growth falls from 0.926 to 0.8.

Going from `C=CCN1CCC23c4c5ccc(O)c4O[C@H]2C(=O)CC[C@@]3(O)[C@H]1C5.Cl` to `C=CCN1C(=O)NC(=O)/C(=C/c2ccco2)C1=O`, the relative growth falls from 1.08 to 0.871.

First: CN1CCN([C@@H](CN)c2ccc3c(c2)OCO3)CC1
Second: CCn1cc(C(=O)[O-])c(=O)c2cc3c(cc21)OCO3.[K+]
The relative growth of the first is higher: 0.914 for the first, 0.163 for the second.

First: NC(=O)C[S@@](=O)C(c1ccccc1)c1ccccc1
Second: C[N+]1(C)CCCC(OC(=O)C(O)(c2ccccc2)c2ccccc2)C1.[Br-] (stereo not given)
The relative growth of the first is higher: 1.16 for the first, 1.09 for the second.

First: N=C1NC(=O)N2CC12 (stereo not given)
Second: O=c1cccc2n1C[C@H]1CNCC2C1
The relative growth of the first is higher: 1.15 for the first, 1.14 for the second.

Going from `[O-][n+]1ccccc1[S][Zn][S]c1cccc[n+]1[O-]` to `COC1=CC(=O)OC(/C=C/c2ccccc2)C1` (stereo not given), the relative growth rises from 0.151 to 0.899.

First: CN1[C@@H]2CC[C@@H]1CC(O)C2 (stereo not given in full)
Second: CC(C)(C)OC(=O)N1C[C@H]2C[C@@H]1CN2
The relative growth of the first is lower: 0.916 for the first, 0.985 for the second.

First: CCN1C(=O)/C(=C/c2ccc[nH]2)C(=O)NC1=S
Second: CN1C(=O)NC(=O)/C(=C\C=C\c2ccco2)C1=O
The relative growth of the first is higher: 0.934 for the first, 0.859 for the second.

First: O=C(N/N=C/c1ccc([N+](=O)[O-])o1)c1cc([N+](=O)[O-])cc([N+](=O)[O-])c1O
Second: COc1cc2c(c(OC)c1OC)-c1ccc(O)c(=O)cc1[C@@H](NC(C)=O)CC2
The relative growth of the first is lower: 0.866 for the first, 0.995 for the second.

Going from `C=C(C)C1Cc2c(ccc3c(=O)c4c(oc23)COc2cc(OC)c(OC)cc2-4)O1` (stereo not given) to `C=C(C)[C@H]1Cc2c(ccc3c2O[C@@H]2COc4cc(OC)c(OC)cc4[C@@H]2C3=O)O1`, the relative growth falls from 1.23 to 0.968.

Compared with `CCC1(CC)C(=O)C=CNC1=O`, `CCNC1(c2cccs2)CCCCC1=O.Cl` (stereo not given) is higher in relative growth: 0.866 for the first, 1.13 for the second.

First: Cl.Oc1noc2c1CCNC2
Second: O=S1(=O)COC2(CNC2)CN1
The relative growth of the first is lower: 0.874 for the first, 1.08 for the second.

First: O=C(NC(=O)c1c(F)cccc1F)Nc1cc(Cl)c(OC(F)(F)C(F)C(F)(F)F)cc1Cl (stereo not given)
Second: Oc1cc(Cl)ccc1Oc1ccc(Cl)cc1Cl
The relative growth of the first is higher: 1.22 for the first, 0.153 for the second.

Going from `O=S(=O)(O)O.Oc1cccc2cccnc12` to `CCN(C(C)=O)c1cccc(-c2ccnc3c(C#N)cnn23)c1`, the relative growth rises from 0.18 to 1.11.

First: COC(=O)C1=CCCN(C)C1
Second: CO[C@]12C[C@@H](COC(=O)c3cncc(Br)c3)CN(C)[C@@H]1Cc1cn(C)c3cccc2c13
The relative growth of the first is higher: 1.13 for the first, 1.09 for the second.

Going from `COP(=O)(OC)OC(Br)C(Cl)(Cl)Br` (stereo not given) to `CC(C)(C)C(=O)C(Oc1ccc(Cl)cc1)n1cncn1` (stereo not given), the relative growth falls from 1.26 to 1.02.

Compared with `O=C1C=C2C(=CCOC2O)O1` (stereo not given), `COc1cc2c(cc1OC)[C@@H]1C(=O)c3ccc4oc(C(C)C)cc4c3O[C@@H]1CO2` is higher in relative growth: 0.122 for the first, 0.904 for the second.

Going from `N#CC(O[C@@H]1O[C@H](CO[C@@H]2O[C@H](CO)[C@@H](O)[C@H](O)[C@H]2O)[C@@H](O)[C@H](O)[C@H]1O)c1ccccc1` (stereo not given in full) to `C[N+]1(C)C2CC(OC(=O)[C@@H](CO)c3ccccc3)CC1C1OC12.[Br-]` (stereo not given in full), the relative growth rises from 1.01 to 1.2.

First: CN[C@@H](C)[C@@H](O)c1ccccc1.Cl
Second: C[C@@H](N)Cc1cccc(O)c1
The relative growth of the first is higher: 1.32 for the first, 0.964 for the second.

First: CC1(C)C(C=C(Cl)Cl)C1C(=O)OC(C#N)c1cccc(Oc2ccccc2)c1 (stereo not given)
Second: CC1(C)C(C=C(Cl)Cl)C1C(=O)OCc1cccc(Oc2ccccc2)c1 (stereo not given)
The relative growth of the first is higher: 1.11 for the first, 0.895 for the second.

Compared with `CC1=CCC[C@@H]2C1(C)CCC(C)[C@@]2(C)CC/C(C)=C/Cn1c[n+](C)c2c(N)ncnc21.[Cl-]` (stereo not given in full), `CC(C)=CCCC1(C)C=Cc2c(O)c3c(c(CC=C(C)C)c2O1)OC12C(=CC4CC1C(C)(C)OC2(C/C=C(/C)C(=O)O)C4O)C3=O` (stereo not given) is higher in relative growth: 0.816 for the first, 0.96 for the second.

Compared with `ClC=C(Cl)Cl`, `Oc1c(Cl)c(Cl)c(Cl)c(Cl)c1Cl` is lower in relative growth: 0.975 for the first, 0.789 for the second.

First: CCCC12CNCC(C)(CNC1)C2=O
Second: CN1CC2(CNC2)OCCS1(=O)=O
The relative growth of the first is higher: 1.05 for the first, 0.976 for the second.

First: O=C([O-])CCCO.[Na+]
Second: CC(C)C[C@H](CN)CC(=O)O
The relative growth of the first is lower: 0.971 for the first, 1.04 for the second.

Going from `COc1cc2c(cc1-c1cc3cc4ccoc4cc3oc1=O)OCO2` to `COc1cc([C@@H]2c3cc4c(cc3[C@H](O)[C@H]3COC(=O)[C@H]23)OCO4)cc(OC)c1OC`, the relative growth rises from 0.851 to 0.901.

Going from `NC1(c2ccccc2F)CCCC1` to `O=c1cccc2n1C[C@@H]1C[C@H]2CN(CCO)C1`, the relative growth rises from 0.999 to 1.03.

Compared with `OCC(Br)(Br)Br`, `Cl.NCCc1c[nH]c2ccc(O)cc12` is higher in relative growth: 0.91 for the first, 1.02 for the second.

Compared with `CN(C)C(=S)SSC(=S)N(C)C`, `CCC(C)(C)O` is higher in relative growth: 0.142 for the first, 0.975 for the second.

Compared with `CC1[C@H](C)OC(=O)CC(O)CC(O)CC(O)CCC(O)C(O)C[C@]2(O)CC(O)C(C(=O)O)C(CC(OC3O[C@H](C)[C@@H](O)[C@H](N)[C@@H]3O)/C=C/C=C/C=C/C=C/CC/C=C/C=C/[C@H](C)[C@H]1O)O2` (stereo not given in full), `C[C@@H](N)Cc1ccco1` is lower in relative growth: 1.03 for the first, 0.776 for the second.
